Data from patent US7649001B2, “Fused benzene derivative and use” (Takeda Pharmaceutical Company Limited, priority 2002, dated 2010).

Amino acid sequences for entries named in this document (tags omitted). A change or cut given only in a name is not applied to a line headed by its entry.
UniProt P10275: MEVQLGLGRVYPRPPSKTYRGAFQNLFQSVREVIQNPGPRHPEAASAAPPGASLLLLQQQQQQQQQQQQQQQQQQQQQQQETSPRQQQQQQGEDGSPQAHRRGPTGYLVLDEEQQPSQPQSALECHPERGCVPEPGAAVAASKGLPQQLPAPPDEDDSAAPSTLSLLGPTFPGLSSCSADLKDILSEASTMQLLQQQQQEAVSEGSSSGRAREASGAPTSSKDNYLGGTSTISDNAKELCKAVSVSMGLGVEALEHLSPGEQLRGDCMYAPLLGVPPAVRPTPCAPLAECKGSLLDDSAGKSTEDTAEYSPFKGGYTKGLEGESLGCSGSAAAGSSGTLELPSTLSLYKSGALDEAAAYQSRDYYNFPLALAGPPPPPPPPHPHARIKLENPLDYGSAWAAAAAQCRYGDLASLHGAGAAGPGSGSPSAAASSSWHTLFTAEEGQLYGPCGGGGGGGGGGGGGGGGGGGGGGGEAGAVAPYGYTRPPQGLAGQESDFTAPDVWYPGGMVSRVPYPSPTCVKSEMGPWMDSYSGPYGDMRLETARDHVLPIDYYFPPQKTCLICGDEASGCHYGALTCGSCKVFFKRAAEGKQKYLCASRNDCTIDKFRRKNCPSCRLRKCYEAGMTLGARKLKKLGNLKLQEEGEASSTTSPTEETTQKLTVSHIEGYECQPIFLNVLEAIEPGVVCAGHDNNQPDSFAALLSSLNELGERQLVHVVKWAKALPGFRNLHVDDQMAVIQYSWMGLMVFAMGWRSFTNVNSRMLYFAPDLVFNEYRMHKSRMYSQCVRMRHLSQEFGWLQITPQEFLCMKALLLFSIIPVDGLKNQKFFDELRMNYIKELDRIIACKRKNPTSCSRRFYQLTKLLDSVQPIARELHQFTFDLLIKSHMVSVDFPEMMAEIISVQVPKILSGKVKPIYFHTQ

These compounds were tested against AR (wild type) (Homo sapiens, UniProt P10275). Conditions: 100 nM compound, 24 hours; luciferase activity with 1 μM 5α-dihydrotestosterone = 100.

| Structure (SMILES) | Induction rate (%) at 100 nM Wild type |
| --- | --- |
| N#Cc1ccc(N2CCC(F)C2)c2ccsc12 (centres unmarked) [Compound 100, 4-(3-fluoro-1-pyrrolidinyl)-1-benzothiophene-7-carbonitrile] | 101% |
| C[C@H]1[C@@H](O)CCN1c1ccc(C#N)c2sccc12 [Compound 118, 4-[(2S,3S)-3-hydroxy-2-methyl-1-pyrrolidinyl]-1-benzothiophene-7-carbonitrile] | 99% |
| C[C@H]1[C@H](O)CCN1c1ccc(C#N)c2sccc12 [Compound 115, 4-[(2S,3R)-3-hydroxy-2-methyl-1-pyrrolidinyl]-1-benzothiophene-7-carbonitrile] | 110% |
| C[C@H]1[C@@H](CO)CCN1c1ccc(C#N)c2sccc12 | 104% |
| C[C@H]1C[C@@H](O)CN1c1ccc(C#N)c2sccc12 [Compound 109, 4-[(2S,4R)-4-hydroxy-2-methyl-1-pyrrolidinyl]-1-benzothiophene-7-carbonitrile] | 85% |
